This is one part of the list.
B1: hsa-mir-136 (structured_RNA)
RNA: GGGAAAUACGACGAACACGACAAACGCUGGUGUACGAAGUUUCAGCGAUGGAUUCUUAUGCUCCAUCGCUGAAGCUUCGUGCAC
B2: hsa-mir-548ar (structured_RNA)
RNA: GGGAAGAAUUAUGCGGGCAUUGCUCUACGGUGUACGAAGUUUCAGCUUUGCUGUUGAACGUAGUGGUAAGCUGAAGCUUCGUGCAC
B3: NEAT1_ParasoR_ID44 (structured_RNA)
RNA: GGGACCCAACGUGCCCAGGUACAUCAUUGGUGUACGAAGUUUCAGCCCUUUUUCUGGGCUGAAGCUUCGUGCAC
B4: hsa-mir-4447 (structured_RNA)
RNA: GGGAAGAUUAUAGUCAUACGUACCCGAGGGUGUACGAAGUUUCAGCCAUCAUUUGCACUACUGAUACUUGGGGUCAGAUAAUUGUUUGUGGUGGCUGAAGCUUCGUGCAC
B5: hsa-mir-4683 (structured_RNA)
RNA: GGGACACUGAACCGUAAGUUAUUCAGAGGGUGUACGAAGUUUCAGCUGCACCAGUUCUGGCCGCUGGUGGAGCUGAAGCUUCGUGCAC
B6: hsa-mir-5680 (structured_RNA)
RNA: GGGAAUUGGCUAUGAGAGAGCAACACAUGGUGUACGAAGUUUCAGCUCCCUUCCUGGACACACAGGAGGAGAGCUGAAGCUUCGUGCAC
B7: hsa-mir-548b (structured_RNA)
RNA: GGGACCGCGCAAUGUGAUAUUUGGCUACGGUGUACGAAGUUUCAGCUUGGCCUUUAUUUUCAAUGGCAAGGCUGAAGCUUCGUGCAC
B8: hsa-mir-4781 (structured_RNA)
RNA: GGGACGAGGUACCAAGCGCCUACUACCUGGUGUACGAAGUUUCAGCUAUUGGGCCAAUUCCCCCAAUGGCUGAAGCUUCGUGCAC
B9: hsa-mir-409 (structured_RNA)
RNA: GGGAAGAUUCCAUACAGGAUGUGGGACGGGUGUACGAAGUUUCAGCUUUGCAUCUGGACGACGAAUGCUGAAGCUUCGUGCAC
B10: NEAT1_ParasoR_ID35 (structured_RNA)
RNA: GGGAAGAUACGCCGCUACGGAAACAUUUGGUGUACGAAGUUUCAGCGCACCUUUGCUGGUGCGCUGAAGCUUCGUGCAC
B11: hsa-mir-3665 (structured_RNA)
RNA: GGGAAGAUCGGACGGCUGUGUACCGAAGGGUGUACGAAGUUUCAGCGCGGCCGCGCUGGCCGCUGCUGAAGCUUCGUGCAC
B12: hsa-mir-2110 (structured_RNA)
RNA: GGGAUGCGUGCAGGUUUUCGGUAAAGCAGGUGUACGAAGUUUCAGCAGUGAGGCGUCGGCUGUGUUUCUGCUGAAGCUUCGUGCAC
B13: hsa-mir-3606 (structured_RNA)
RNA: GGGAAAGCUUACGCGGAGUGAGCAUAUUGGUGUACGAAGUUUCAGCUUUUAAUUUUUUUAAAAGCUGAAGCUUCGUGCAC

biological target: T1, LIN28A (human?, UniProt Q9H9Z2 1-209); assay: FOREST: bead pull-down of RNA structure library v1, barcode microarray; U1A/LIN28A: 20 mM HEPES pH 7.5, 80 mM KCl, 20 mM NaCl, 10% glycerol, 2 mM DTT, 0.1 ug/uL BSA, 4 C; BG4/CIRBP/DHX36: 10 mM Tris-HCl pH 7.5, 100 mM KCl (or LiCl),; high values mean tight binding
T1 sequence: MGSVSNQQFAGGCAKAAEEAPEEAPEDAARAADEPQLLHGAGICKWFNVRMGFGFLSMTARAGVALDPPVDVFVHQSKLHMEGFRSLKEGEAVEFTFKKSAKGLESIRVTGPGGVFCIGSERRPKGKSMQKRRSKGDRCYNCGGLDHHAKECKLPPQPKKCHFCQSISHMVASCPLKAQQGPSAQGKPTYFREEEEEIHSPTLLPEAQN

Row | Binder | binding signal
1 | B1 | -0.384 z-score
2 | B2 | -0.385 z-score
3 | B3 | -0.386 z-score
4 | B4 | -0.387 z-score
5 | B5 | -0.39 z-score
6 | B6 | -0.391 z-score
7 | B7 | -0.399 z-score
8 | B8 | -0.399 z-score
9 | B9 | -0.4 z-score
10 | B10 | -0.402 z-score
11 | B11 | -0.403 z-score
12 | B12 | -0.407 z-score
13 | B13 | -0.408 z-score

biological target: T2, CIRBP (Homo sapiens, UniProt Q14011 1-172); assay: as above
T2 sequence: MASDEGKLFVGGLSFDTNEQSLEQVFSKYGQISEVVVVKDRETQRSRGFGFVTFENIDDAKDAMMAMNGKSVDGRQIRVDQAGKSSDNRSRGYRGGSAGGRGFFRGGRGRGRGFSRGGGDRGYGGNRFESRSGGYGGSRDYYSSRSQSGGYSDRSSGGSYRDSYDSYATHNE

Row | Binder | binding signal
14 | B1 | -1.75 z-score
15 | B2 | -0.757 z-score
16 | B3 | -2.14 z-score
17 | B4 | 0.935 z-score
18 | B5 | -0.469 z-score
19 | B6 | -0.0354 z-score
20 | B7 | -0.53 z-score
21 | B8 | -1.2 z-score
22 | B9 | 0.0141 z-score
23 | B10 | -0.629 z-score
24 | B11 | -0.509 z-score
25 | B12 | -0.266 z-score
26 | B13 | -0.0264 z-score

biological target: T3, DHX36 (Homo sapiens, UniProt Q9H2U1 1-1008); assay: as above
T3 sequence: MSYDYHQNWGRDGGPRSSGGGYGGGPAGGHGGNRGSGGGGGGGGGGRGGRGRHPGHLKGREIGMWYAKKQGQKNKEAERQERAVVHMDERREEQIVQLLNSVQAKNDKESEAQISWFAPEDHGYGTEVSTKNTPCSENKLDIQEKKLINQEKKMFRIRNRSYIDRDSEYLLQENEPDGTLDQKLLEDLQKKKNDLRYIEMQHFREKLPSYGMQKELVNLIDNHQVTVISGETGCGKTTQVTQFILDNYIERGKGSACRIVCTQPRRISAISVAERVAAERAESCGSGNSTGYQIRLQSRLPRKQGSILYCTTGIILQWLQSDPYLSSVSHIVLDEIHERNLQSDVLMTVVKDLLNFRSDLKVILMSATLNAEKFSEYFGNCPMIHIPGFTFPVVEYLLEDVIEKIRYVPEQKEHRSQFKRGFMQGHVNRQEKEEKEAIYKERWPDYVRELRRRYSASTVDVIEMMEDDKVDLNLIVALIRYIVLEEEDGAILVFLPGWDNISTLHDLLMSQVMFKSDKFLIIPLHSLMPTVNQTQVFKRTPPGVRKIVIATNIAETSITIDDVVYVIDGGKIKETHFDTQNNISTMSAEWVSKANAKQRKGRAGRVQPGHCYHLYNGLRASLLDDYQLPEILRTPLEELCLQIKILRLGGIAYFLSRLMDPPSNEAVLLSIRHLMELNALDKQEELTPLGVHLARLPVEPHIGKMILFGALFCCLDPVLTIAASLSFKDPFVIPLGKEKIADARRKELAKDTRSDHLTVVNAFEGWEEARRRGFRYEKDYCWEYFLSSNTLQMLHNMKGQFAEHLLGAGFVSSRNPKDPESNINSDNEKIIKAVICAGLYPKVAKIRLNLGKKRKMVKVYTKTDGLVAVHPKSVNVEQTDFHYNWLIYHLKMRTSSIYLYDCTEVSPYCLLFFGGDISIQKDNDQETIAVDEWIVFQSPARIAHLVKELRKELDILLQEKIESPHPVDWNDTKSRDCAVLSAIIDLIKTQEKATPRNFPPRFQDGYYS

Row | Binder | binding signal
27 | B1 | 0.0538 z-score
28 | B2 | -0.495 z-score
29 | B3 | -0.637 z-score
30 | B4 | -0.142 z-score
31 | B5 | 0.721 z-score
32 | B6 | 0.348 z-score
33 | B7 | -0.156 z-score
34 | B8 | -0.163 z-score
35 | B9 | 0.662 z-score
36 | B10 | -0.768 z-score
37 | B11 | 0.368 z-score
38 | B12 | -0.279 z-score
39 | B13 | 0.696 z-score

— publication PMC7723054
